For one molecule, EC50 results are on record in patent US20260306453A1, “FORMULATIONS CONTAINING TRYPTAMINE DERIVATIVES AND USES THEREOF” (priority 2023, published 2026).

By UniProt entry, the sequences of proteins in these tests, tags left out.
UniProt P28223, whole entry: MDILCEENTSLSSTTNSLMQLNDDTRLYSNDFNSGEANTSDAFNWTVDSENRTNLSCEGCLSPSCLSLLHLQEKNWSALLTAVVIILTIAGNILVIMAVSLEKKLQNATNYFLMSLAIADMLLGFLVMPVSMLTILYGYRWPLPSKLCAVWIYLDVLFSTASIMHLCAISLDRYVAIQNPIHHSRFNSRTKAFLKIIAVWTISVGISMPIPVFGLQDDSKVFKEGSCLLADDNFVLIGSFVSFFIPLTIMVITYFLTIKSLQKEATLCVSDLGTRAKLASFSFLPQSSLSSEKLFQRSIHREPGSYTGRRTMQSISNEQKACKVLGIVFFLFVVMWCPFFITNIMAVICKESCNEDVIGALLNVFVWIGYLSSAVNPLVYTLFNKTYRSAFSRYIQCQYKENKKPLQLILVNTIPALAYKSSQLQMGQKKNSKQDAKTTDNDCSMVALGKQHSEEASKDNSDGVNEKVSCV

The structures appear in SMILES notation.

Broadly, the EC50 is the concentration that produces a half-maximal response. A high value points to lower potency in that assay.

In this test the target is 5-HT2A (Homo sapiens, UniProt P28223). Put plainly: In vitro functional activity, 5-HT2A. In kind it is biochemical. The conditions noted are these: agonism. The source says:
The functional activity considers agonism vs. antagonism. […] Each of these receptors affects mental health, learning, memory, and more specifically, 5-HT6 is responsible for precognitive effects and neuronal connections, growth, and migration.

Turning to `CC(=O)Oc1cccc2[nH]c(Br)c(CCN(C)C)c12` [drawing 18], the EC50 is 598 nM. This counts as sub-micromolar.
